This is one part of the list. Results with a measured potency or affinity are listed apart. Active and inactive are the calls of the source.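 How the source made its calls: active means first-screen hits whose inhibition reached a set limit at any dose in the follow-up dose series; inconclusive means inhibition above the set first-screen limit but never retested; inactive means the rest.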
molecular target: Rac GTPase-activating protein 1 (Homo sapiens) (UniProt Q9H0H5); experiment: blockers of MgcRacGAP-driven Rac1 GTP hydrolysis – biochemical, ADP Hunter fluorescence, primary and confirmatory, confirmation (AID 624330); conditions: MgcRacGAP-stimulated Rac1 GTP hydrolysis, at 30 µM, hits give high values, GST-tagged Rac1 F28L mutant substrate;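 further: fluorescence reports GDP produced by GAP-driven GTP hydrolysis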

By UniProt entry, the sequences of proteins in these tests, tags left out.
UniProt Q9H0H5, whole entry: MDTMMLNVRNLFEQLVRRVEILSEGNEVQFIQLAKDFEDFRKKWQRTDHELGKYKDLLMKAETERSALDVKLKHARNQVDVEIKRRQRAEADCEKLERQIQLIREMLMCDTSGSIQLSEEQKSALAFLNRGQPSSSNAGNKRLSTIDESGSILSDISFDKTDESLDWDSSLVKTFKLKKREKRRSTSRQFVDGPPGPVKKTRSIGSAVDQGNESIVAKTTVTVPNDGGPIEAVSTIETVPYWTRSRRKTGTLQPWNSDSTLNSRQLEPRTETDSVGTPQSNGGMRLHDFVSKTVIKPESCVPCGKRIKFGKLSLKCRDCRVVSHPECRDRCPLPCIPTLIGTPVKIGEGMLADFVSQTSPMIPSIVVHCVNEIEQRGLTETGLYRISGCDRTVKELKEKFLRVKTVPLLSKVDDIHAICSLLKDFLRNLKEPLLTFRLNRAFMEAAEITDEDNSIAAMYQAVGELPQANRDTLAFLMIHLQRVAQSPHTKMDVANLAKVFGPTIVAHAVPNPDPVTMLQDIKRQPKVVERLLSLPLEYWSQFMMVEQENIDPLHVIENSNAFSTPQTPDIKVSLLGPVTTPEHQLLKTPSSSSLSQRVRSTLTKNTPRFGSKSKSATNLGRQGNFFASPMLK

SMILES | inhibition
CC(=O)N(c1ccccc1)C1CCNCC1 | inactive: 3.6%
COc1cc(OC)cc(C(=O)NCC2(N3CCCCC3)CCCCC2)c1 | inactive: 6.61%
Fc1ccccc1NC1CCN(Cc2ccccc2)CC1 | inactive: 7.75%
Cc1ccc(C(=O)NCC2(N3CCCCC3)CCCCC2)o1 | inactive: 2.21%
Cc1ccc(NC2(C#N)CCN(Cc3ccccc3)CC2)cc1 | inactive: -0.03%
CCN1CCC(Nc2cccc(F)c2)CC1 | inactive: -1.2%
Cc1ccccc1NC1(C#N)CCN(Cc2ccccc2)CC1 | inactive: -7.21%
CN(C)c1ccc(C(=O)NCC2(N3CCCCC3)CCCCC2)cc1 | inactive: 7.01%
Cn1c(=O)[nH]cc(N(CCCl)CCCl)c1=O | inactive: 8.21%
O=C(NCC1(N2CCCCC2)CCCCC1)c1ccco1 | inactive: 5.74%
CN1CCC(Nc2ccc(F)c(Cl)c2)CC1 | inactive: 29.5%
CCOc1ncccc1C(=O)NCC1(N2CCOCC2)CCCCC1 | inactive: 3.86%
O=C(O)C1(Nc2ccccc2)CCN(Cc2ccccc2)CC1 | inactive: 6.53%
CC(C)(C)OC(=O)N1CCC(Nc2ccccc2)CC1 | inactive: -1.82%
CCCOc1ccc(C(=O)NCC2(N(C)C)CCCCC2)cc1 | inactive: 6.36%
COc1cc(OC)cc(C(=O)NCC2(N3CCOCC3)CCCCC2)c1 | inactive: 8.39%
COc1cccc(C(=O)N(c2cc(C)cc(C)c2)C2CCN(C(=O)OC(C)(C)C)CC2)c1 | inactive: 5.74%
CCC(CO)(C(=O)OC1CN2CCC1CC2)c1ccccc1 (configuration not stated) | inactive: -2.63%
CN1CCC(Nc2ccc(Cl)cc2)CC1 | inactive: 13.3%
COc1cc(C(=O)NCC2(N3CCOCC3)CCCCC2)cc(OC)c1C | inactive: 6%
O=C(NCC1(N2CCOCC2)CCCCC1)c1cc(Br)ccc1Cl | inactive: -3.54%
COc1ccc(C(=O)NCC2(N3CCOCC3)CCCCC2)cc1OC | inactive: -1.53%
CCOC(=O)N1CCC(Nc2ccc(C)cc2)CC1 | inactive: 15%
N/C(=N\O)c1c(N)no[n+]1[O-] | inactive: 12.6%

SMILES | inhibition
O=C(OC1CN2CCC1CC2)C1c2ccccc2C=Cc2ccccc21 (configuration not stated) | inactive: -0.09%
N#Cc1ccc(C(=O)NCC2(N3CCCCC3)CCCCC2)cc1 | inactive: -0.97%
CC(C)(C)OC(=O)N1CCC(N(C(=O)c2ccccc2)c2ccc(Cl)cc2)CC1 | inactive: 1.47%
CN(C)C1(CNC(=O)c2cccc(C#N)c2)CCCCC1 | inactive: 9.16%
CCCN1CCC(Nc2cc(OC)cc(OC)c2)CC1 | inactive: 11.5%
Cc1cc(N(CCCl)CCCl)ccc1C=O | inactive: 4.49%
c1ccc(CN2CCC(Nc3ccccc3)CC2)cc1 | inactive: 8.92%
O=C(NCC1(N2CCCCC2)CCCCC1)c1ccc(OC(F)F)cc1 | inactive: 4.48%
N#CC1(Nc2ccccc2)CCN(CCc2ccccc2)CC1 | inactive: 9.99%
CCN1CCC(Nc2ccc(Cl)cc2)CC1 | inactive: -5.28%
CSc1ccc(C(=O)NCC2(N3CCOCC3)CCCCC2)cc1 | inactive: 11.5%
O=C(NCC1(N2CCCCC2)CCCCC1)c1cccc([N+](=O)[O-])c1 | inactive: 6.89%
O=C(NCC1(N2CCCCC2)CCCCC1)c1cccc(C(F)(F)F)c1 | inactive: 14.3%
COc1cc(C(=O)NCC2(N3CCCCC3)CCCCC2)ccc1OC(F)F | inactive: -13.3%
O=C(NCC1(N2CCOCC2)CCCCC1)c1cc(=O)[nH]c2ccccc12 | inactive: -1.02%
CN1CCN(CCOC(=O)C(O)(c2ccccc2)c2ccccc2)CC1 | inactive: 8.16%
CC(C)c1ccc(C(=O)NCC2(N3CCOCC3)CCCCC2)cc1 | inactive: 7.99%
CC(C)c1ccc(NC2CCN(C(=O)OC(C)(C)C)CC2)cc1 | inactive: 3.06%
CN(C)c1cccc(C(=O)NCC2(N3CCCCC3)CCCCC2)c1 | inactive: 4.09%
COc1ccc(CN(CCCl)CCCl)cc1Cl | inactive: -2.54%
O=C(NCC1(N2CCOCC2)CCCCC1)c1cc(F)c(F)cc1Cl | inactive: 2.84%
COc1cc(OC)c(C(=O)NCC2(N(C)C)CCCCC2)cc1OC | inactive: 10%
CN1CCC(Nc2cccc(F)c2)CC1 | inactive: 18.2%
O=C(NCC1(N2CCCCC2)CCCCC1)c1cncc(Br)c1 | inactive: 6.21%

SMILES | inhibition
CCCOc1ccc(C(=O)NCC2(N(C)C)CCCCC2)cc1OC | inactive: 11.2%
Cc1ccc(C(=O)NCC2(N(C)C)CCCCC2)o1 | inactive: 13.8%
COc1ccc(C(=O)NCC2(N3CCCCC3)CCCCC2)c(OC)c1OC | inactive: 0.92%
CC(C)(C)OC(=O)N1CCC(N(C(=O)c2ccccc2)c2ccc(F)cc2)CC1 | inactive: 7.42%
COc1ccc(C(=O)NCC2(N3CCCCC3)CCCCC2)cc1 | inactive: -3.68%
O=C(NCC1(N2CCCCC2)CCCCC1)c1cccs1 | inactive: -6.27%
O=C(NCC1(N2CCCCC2)CCCCC1)c1ccc(=O)[nH]c1 | inactive: 1.32%
Cc1cccc(NC2(C#N)CCN(Cc3ccccc3)CC2)c1 | inactive: 4%
CSc1ccccc1C(=O)NCC1(N2CCCCC2)CCCCC1 | inactive: 3.06%
Cc1cc(C)cc(N(C(=O)c2ccccc2)C2CCN(C(=O)OC(C)(C)C)CC2)c1 | inactive: 9%
O=C(NCC1(N2CCCCC2)CCCCC1)c1ccc(Cl)nc1 | inactive: 4.32%
O=C(NCC1(N2CCOCC2)CCCCC1)c1cc2ccccc2o1 | inactive: 13.4%
COc1ccc(Cl)cc1C(=O)NCC1(N2CCOCC2)CCCCC1 | inactive: -1.09%
N#CC1(Nc2ccccc2)CCN(Cc2ccccc2)CC1 | inactive: 8.22%
O=C(NCC1(N2CCCCC2)CCCCC1)c1ccc(Cl)s1 | inactive: 4.82%
O=C(OC1CN2CCC1CC2)C1c2ccccc2Oc2ccccc21 (configuration not stated) | inactive: 7.21%
O=C1CCN(Cc2ccccc2)CC1 | inactive: 0.53%
CCOc1ccc(C)cc1CN(CCCl)CCCl | inactive: -2.2%
CCOC(=O)N1CCC(Nc2ccc(F)cc2)CC1 | inactive: 12.8%
O=P1(N(CCCl)CCCl)SCCCS1 | inactive: -0.37%
CCCCOc1ccc(C(=O)NCC2(N3CCOCC3)CCCCC2)cc1 | inactive: 4.15%
O=C(NCC1(N2CCCCC2)CCCCC1)c1ccc(F)cc1 | inactive: 10.2%
CCOC(=O)N1CCC(Nc2cccc(C)c2)CC1 | inactive: 1.07%
COc1cc(C(=O)NCC2(N(C)C)CCCCC2)ccc1OC(F)F | inactive: 4.63%

— PubChem BioAssay AID624330 (Southern Research Specialized Biocontainment Screening …, 2012)
